Reference: paper PMC4981245 (ACS chemical biology, 2016)

By UniProt entry, the sequences of proteins in these tests, tags left out. Residues count along the entry.
UniProt P31424, 21-1203: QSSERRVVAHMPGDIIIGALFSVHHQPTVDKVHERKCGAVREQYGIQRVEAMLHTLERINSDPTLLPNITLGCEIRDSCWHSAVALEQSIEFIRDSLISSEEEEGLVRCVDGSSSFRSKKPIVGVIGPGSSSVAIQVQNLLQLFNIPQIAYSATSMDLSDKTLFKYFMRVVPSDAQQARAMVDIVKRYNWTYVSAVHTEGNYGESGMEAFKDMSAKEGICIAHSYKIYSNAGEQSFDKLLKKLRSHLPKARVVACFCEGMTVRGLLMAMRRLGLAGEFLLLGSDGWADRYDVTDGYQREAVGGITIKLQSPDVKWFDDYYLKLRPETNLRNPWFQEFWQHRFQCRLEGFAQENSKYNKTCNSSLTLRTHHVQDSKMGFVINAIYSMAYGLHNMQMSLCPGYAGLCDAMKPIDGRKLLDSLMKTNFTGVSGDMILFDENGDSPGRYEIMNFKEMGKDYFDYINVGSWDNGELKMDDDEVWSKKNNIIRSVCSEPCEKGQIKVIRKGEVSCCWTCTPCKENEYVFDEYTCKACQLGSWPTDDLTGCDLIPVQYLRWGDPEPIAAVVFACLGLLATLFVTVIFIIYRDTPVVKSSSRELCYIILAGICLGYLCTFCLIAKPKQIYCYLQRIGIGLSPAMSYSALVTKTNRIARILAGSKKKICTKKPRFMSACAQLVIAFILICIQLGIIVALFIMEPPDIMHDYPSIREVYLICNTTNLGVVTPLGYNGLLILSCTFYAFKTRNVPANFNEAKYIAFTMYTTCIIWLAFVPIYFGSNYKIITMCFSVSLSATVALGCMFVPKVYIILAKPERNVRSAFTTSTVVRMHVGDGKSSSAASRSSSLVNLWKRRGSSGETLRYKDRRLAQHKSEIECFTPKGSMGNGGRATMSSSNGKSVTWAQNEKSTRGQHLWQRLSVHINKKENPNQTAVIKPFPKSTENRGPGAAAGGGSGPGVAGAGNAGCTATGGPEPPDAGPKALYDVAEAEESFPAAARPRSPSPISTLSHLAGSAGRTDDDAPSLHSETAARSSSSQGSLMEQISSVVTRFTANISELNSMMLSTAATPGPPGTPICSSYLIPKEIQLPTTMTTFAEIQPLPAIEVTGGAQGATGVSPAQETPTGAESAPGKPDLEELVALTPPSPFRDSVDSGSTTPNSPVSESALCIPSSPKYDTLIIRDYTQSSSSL

Tests used:
mGlu5 [1] = target: T1, mGlu5 (Rattus norvegicus, UniProt P31424); assay type: cell-based; settings: HEK293A-mGlu5-low, EC80 glutamate (~200 nM)
mGlu5 [2] = target: T1, mGlu5; settings: previously reported; cited from earlier work
mGlu5 [3] = target: T1, mGlu5; settings: previously reported, cited from earlier work

EC80 glutamate inhibition pIC50 (mGlu5 [1]): 8.23 ± 0.16
SMILES: Cc1cccc(C#Cc2ccccc2)n1 [6 (MPEP), MPEP, reference compound]
modulation of glutamate pKB (mGlu5 [2]): 8.55
[3H]-mPEPy binding pKi (mGlu5 [3]): 8.02
Ki (mGlu5 [3]; read-out: [3H]-mPEPy binding Ki (value in brackets)): 9.5 nM
